In the test the target is T1, HER2-ECD (Homo sapiens, UniProt P04626).
T1 construct: made in house; host or cells: HEK293
The experiment in a line: Affinity assay of ADC by ELISA. The note with it: ELISA on coated HER2-ECD; molar equivalent of affinity. The format is binding.

pKd: −log10 of the molar value.

On to T-DM1, for which the pKd (commonly the Kd on a negative log10 scale, so that one unit is a factor of ten) was 10.82.

Values taken from patent US10087260B2, “Anti-HER2 antibody and conjugate thereof” (REMEGEN, LTD., priority 2013, dated 2018).
